The target in this assay is Sodium-dependent dopamine transporter (Rattus norvegicus, UniProt P23977). The assay can be described thus: Ability to inhibit high affinity uptake of [3H]DA at Dopamine transporter (DAT) using rat brain striatum. In kind it is tissue-based. The method, boiled down: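 Rat synaptosomal (P2) uptake: striatum for DAT, midbrain for SERT, parietal/occipital cortex for NET, in modified KRH pH 7.4 with nialamide. Drug preincubated 30 min at 4 °C, then 15 min at 37 °C. [3H]amine final ~5 nM (DA, 5-HT) or 9 nM (NE), 5 min uptake, stopped with cold Na-free buffer and filtered. Background from 0 °C tubes. IC50 converted to Ki by Cheng–Prusoff. Mean ± SE, ≥3 experiments.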

By UniProt entry, the sequences of proteins in these tests, tags left out.
UniProt P23977, whole entry: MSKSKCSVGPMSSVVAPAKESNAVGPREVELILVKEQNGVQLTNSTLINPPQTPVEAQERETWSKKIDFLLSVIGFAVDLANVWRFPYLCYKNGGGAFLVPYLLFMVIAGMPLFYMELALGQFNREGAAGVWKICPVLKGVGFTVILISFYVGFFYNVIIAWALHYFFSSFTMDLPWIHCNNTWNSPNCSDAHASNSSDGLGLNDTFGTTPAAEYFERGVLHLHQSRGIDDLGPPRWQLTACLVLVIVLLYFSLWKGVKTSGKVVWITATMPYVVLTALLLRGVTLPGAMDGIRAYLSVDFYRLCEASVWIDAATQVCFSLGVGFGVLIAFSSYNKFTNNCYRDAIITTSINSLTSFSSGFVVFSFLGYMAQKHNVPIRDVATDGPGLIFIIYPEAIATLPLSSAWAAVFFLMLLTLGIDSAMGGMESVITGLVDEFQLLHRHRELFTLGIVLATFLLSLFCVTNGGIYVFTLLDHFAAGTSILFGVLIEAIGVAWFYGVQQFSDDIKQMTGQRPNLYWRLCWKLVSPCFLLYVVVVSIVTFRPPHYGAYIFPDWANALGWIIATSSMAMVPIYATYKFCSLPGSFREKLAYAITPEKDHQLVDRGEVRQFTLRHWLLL

The term Ki denotes a dissociation constant, usually derived from enzyme kinetics or from competition with a known ligand.

Regarding `CN1CC[C@H](c2ccc(Cl)cc2)[C@@H](C(=O)O)C1`, the inhibitory constant (Ki) amounted to 173 µM. The compound `CNC(=O)C[C@H]1CN(C)CC[C@@H]1c1ccc(Cl)cc1` gave a Ki of 0.926 µM.

These data come from ChEMBL document CHEMBL1149196 (J Med Chem, 2004).
